Data on one compound can be found in US4985440A, “Hypolipidaemic imidazol-2-yl-derivatives of bicyclic compounds” (priority 1988, dated 1991).

This assay deals with T1, acyl CoA: cholesterol acyltransferase (ACAT-EC 2.3.1.26) (Oryctolagus cuniculus, UniProt A0A5F9CPP4).
T1 construct: microsomal preparations from atherosclerotic rabbit thoracic aorta (intimamedia); from tissue; host or cells: microsomes of atherosclerotic rabbit thoracic aorta (intima-media)
T1 sequence (A0A5F9CPP4 1-555): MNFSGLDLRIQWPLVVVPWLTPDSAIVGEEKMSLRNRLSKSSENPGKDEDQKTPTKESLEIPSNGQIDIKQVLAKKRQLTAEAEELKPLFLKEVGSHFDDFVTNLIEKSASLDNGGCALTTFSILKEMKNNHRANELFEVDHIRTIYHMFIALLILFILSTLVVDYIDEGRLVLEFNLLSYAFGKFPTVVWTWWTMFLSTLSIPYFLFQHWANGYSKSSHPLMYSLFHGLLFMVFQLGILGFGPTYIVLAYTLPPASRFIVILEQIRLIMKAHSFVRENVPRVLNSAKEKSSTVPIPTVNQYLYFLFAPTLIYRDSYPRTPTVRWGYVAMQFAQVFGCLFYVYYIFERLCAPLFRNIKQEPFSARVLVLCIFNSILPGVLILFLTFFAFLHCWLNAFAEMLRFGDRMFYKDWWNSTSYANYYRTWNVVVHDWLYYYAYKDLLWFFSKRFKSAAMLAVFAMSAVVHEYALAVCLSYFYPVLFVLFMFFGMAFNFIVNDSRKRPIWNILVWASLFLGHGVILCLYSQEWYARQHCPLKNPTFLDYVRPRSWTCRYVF
The experiment in a line: ACAT inhibition in microsomes from atherosclerotic rabbit thoracic aortas (Table 2). In kind it is biochemical.

Molecules are shown by their SMILES. pIC50: −log10 of the molar value.

By pIC50 is commonly meant the IC50 on a negative log10 scale, so that one unit is a factor of ten. Low readings indicate a large IC50, high ones a small IC50.

For the compound `CC(C)(Oc1ccc(CCNC(=O)c2ccc(Cl)cc2)cc1)C(=O)O` [Bezafibrate, reference compound], the negative-log IC50 (pIC50) is 3.29.
